These are literature values, as cited in patent publication US20050032096A1, “Methods for predicting drug sensitivity in patients afflicted with hypertension” (deCODE genetics ehf., priority 2003, published 2005).

The target in the series is AT1 receptor (Homo sapiens, UniProt P30556). The settings on record: cited from earlier work.

Turning to `CCCCc1nc(Cl)c(CO)n1Cc1ccc(-c2ccccc2-c2nn[nH]n2)cc1` [Cozaar, Losartan potassium], the “greater affinity for the AT1 receptor than for the AT2 receptor” value is on record as “about 1000 fold”. Besides, the “type of inhibition of the AT1 receptor” value (in vitro binding studies) is given as “reversible, competitive inhibitor”.
